Test results from PubChem BioAssay (NCI).
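All cell lines were grown in 96-well plates and treated with compound for 48 hours. At the GI50, growth is halved. TGI denotes the concentration required for complete inhibition of growth.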

What was measured:
Experiment in all cases: NCI tumour cell line growth inhibition, 48 h
[1] = test system: K-562 leukemia
[2] = test system: NCI/ADR-RES ovarian
[3] = test system: PC-3 prostate
[4] = test system: SF-295 CNS
[5] = test system: CCRF-CEM leukemia
[6] = test system: RXF 393 renal
[7] = test system: SK-MEL-28 melanoma
[8] = test system: NCI-H522 lung
[9] = test system: MALME-3M melanoma
[10] = test system: SK-MEL-2 melanoma
[11] = test system: LOX IMVI melanoma
[12] = test system: CAKI-1 renal
[13] = test system: OVCAR-3 ovarian
[14] = test system: SF-268 CNS
[15] = test system: SW-620 colon
[16] = test system: M14 melanoma
[17] = test system: SR leukemia
[18] = test system: HOP-62 NSCLC
[19] = test system: OVCAR-4 ovarian
[20] = test system: A498 renal
[21] = test system: NCI-H460 lung
[22] = test system: MOLT-4 leukemia
[23] = test system: HOP-92 NSCLC
[24] = test system: EKVX NSCLC
[25] = test system: NCI-H322M lung
[26] = test system: MDA-MB-231 breast
[27] = test system: SN12C renal
[28] = test system: SK-MEL-5 melanoma
[29] = test system: TK-10 renal
[30] = test system: NCI-H23 lung
[31] = test system: HT29 colon
[32] = test system: ACHN renal
[33] = test system: RPMI-8226 leukemia
[34] = test system: HCC-2998 colon
[35] = test system: BT-549 breast
[36] = test system: UACC-257 melanoma
[37] = test system: MDA-N
[38] = test system: 786-0 renal
[39] = test system: NCI-H226 lung
[40] = test system: MCF7 breast
[41] = test system: COLO 205 colon
[42] = test system: KM12 colon
[43] = test system: OVCAR-8 ovarian
[44] = test system: A549 NSCLC
[45] = test system: HCT-15 colon
[46] = test system: OVCAR-5 ovarian
[47] = test system: HCT-116 colon
[48] = test system: SNB-19 CNS
[49] = test system: IGROV1 ovarian
[50] = test system: DU-145 prostate
[51] = test system: MDA-MB-435
[52] = test system: SF-539 CNS
[53] = test system: UO-31 renal
[54] = test system: UACC-62 melanoma
[55] = test system: SNB-75 CNS
[56] = test system: T-47D breast
[57] = test system: HL-60(TB) leukemia
[58] = test system: HS 578T breast
[59] = test system: SK-OV-3 ovarian
[60] = test system: U251 CNS

O=[N+]([O-])C1([N+](=O)[O-])COCOC1
GI50 [1]: 24.5 µM
TGI [1]: > 100 µM
GI50 [2]: 56.5 µM
TGI [2]: > 100 µM
GI50 [3]: > 100 µM
TGI [3]: > 100 µM
GI50 [4]: > 100 µM
TGI [4]: > 100 µM
GI50 [5]: 94 µM
TGI [5]: > 100 µM
GI50 [6]: > 100 µM
TGI [6]: > 100 µM
GI50 [7]: > 100 µM
TGI [7]: > 100 µM
GI50 [8]: 12.3 µM
TGI [8]: 32 µM
GI50 [9]: 33.4 µM
TGI [9]: > 100 µM
GI50 [10]: 90.2 µM
TGI [10]: > 100 µM
GI50 [11]: > 100 µM
TGI [11]: > 100 µM
GI50 [12]: > 100 µM
TGI [12]: > 100 µM
GI50 [13]: > 100 µM
TGI [13]: > 100 µM
GI50 [14]: > 100 µM
TGI [14]: > 100 µM
GI50 [15]: > 100 µM
TGI [15]: > 100 µM
GI50 [16]: 38.7 µM
TGI [16]: > 100 µM
GI50 [17]: 29.8 µM
TGI [17]: > 100 µM
GI50 [18]: > 100 µM
TGI [18]: > 100 µM
GI50 [19]: > 100 µM
TGI [19]: > 100 µM
GI50 [20]: > 100 µM
TGI [20]: > 100 µM
GI50 [21]: > 100 µM
TGI [21]: > 100 µM
GI50 [22]: > 100 µM
TGI [22]: > 100 µM
GI50 [23]: 17.6 µM
TGI [23]: 65.3 µM
GI50 [24]: > 100 µM
TGI [24]: > 100 µM
GI50 [25]: > 100 µM
TGI [25]: > 100 µM
GI50 [26]: > 100 µM
TGI [26]: > 100 µM
GI50 [27]: > 100 µM
TGI [27]: > 100 µM
GI50 [28]: 22.1 µM
TGI [28]: > 100 µM
GI50 [29]: > 100 µM
TGI [29]: > 100 µM
GI50 [30]: 50.9 µM
TGI [30]: > 100 µM
GI50 [31]: 42.2 µM
TGI [31]: > 100 µM
GI50 [32]: > 100 µM
TGI [32]: > 100 µM
GI50 [33]: 63.5 µM
TGI [33]: > 100 µM
GI50 [34]: > 100 µM
TGI [34]: > 100 µM
GI50 [35]: 27.3 µM
TGI [35]: 92.6 µM
GI50 [36]: 65.9 µM
TGI [36]: > 100 µM
GI50 [37]: 17.7 µM
TGI [37]: 41 µM
GI50 [38]: > 100 µM
TGI [38]: > 100 µM
GI50 [39]: > 100 µM
TGI [39]: > 100 µM
GI50 [40]: 78.2 µM
TGI [40]: > 100 µM
GI50 [41]: 47.3 µM
TGI [41]: > 100 µM
GI50 [42]: 61.9 µM
TGI [42]: > 100 µM
GI50 [43]: > 100 µM
TGI [43]: > 100 µM
GI50 [44]: > 100 µM
TGI [44]: > 100 µM
GI50 [45]: 28.9 µM
TGI [45]: > 100 µM
GI50 [46]: > 100 µM
TGI [46]: > 100 µM
GI50 [47]: > 100 µM
TGI [47]: > 100 µM
GI50 [48]: > 100 µM
TGI [48]: > 100 µM
GI50 [49]: 27.5 µM
TGI [49]: > 100 µM
GI50 [50]: > 100 µM
TGI [50]: > 100 µM
GI50 [51]: 17.9 µM
TGI [51]: 57.6 µM
GI50 [52]: > 100 µM
TGI [52]: > 100 µM
GI50 [53]: > 100 µM
TGI [53]: > 100 µM
GI50 [54]: 81.9 µM
TGI [54]: > 100 µM
GI50 [55]: > 100 µM
TGI [55]: > 100 µM
GI50 [56]: 44 µM
TGI [56]: > 100 µM
TGI [57]: > 100 µM
GI50 [58]: > 100 µM
TGI [58]: > 100 µM
GI50 [59]: > 100 µM
TGI [59]: > 100 µM
GI50 [60]: > 100 µM
TGI [60]: > 100 µM

COc1ccc2c3c1OC1C4(OC)C=CC5(CC4C(C)=O)[C@@H](C2)N(C)CC[C@]315 (some centres not stated)
TGI [1]: > 100 µM
TGI [2]: > 100 µM
TGI [3]: > 100 µM
TGI [4]: > 100 µM
TGI [5]: > 100 µM
TGI [6]: > 100 µM
TGI [7]: > 100 µM
TGI [8]: > 100 µM
TGI [9]: > 100 µM
TGI [10]: > 100 µM
TGI [11]: > 100 µM
TGI [12]: > 100 µM
TGI [13]: > 100 µM
TGI [14]: > 100 µM
TGI [15]: > 100 µM
TGI [16]: > 100 µM
TGI [17]: > 100 µM
TGI [18]: > 100 µM
TGI [19]: > 100 µM
TGI [20]: > 100 µM
TGI [21]: > 100 µM
TGI [22]: > 100 µM
TGI [23]: > 100 µM
TGI [24]: > 100 µM
TGI [25]: > 100 µM
TGI [26]: > 100 µM
TGI [27]: > 100 µM
TGI [28]: > 100 µM
TGI [29]: > 100 µM
TGI [30]: > 100 µM
TGI [31]: > 100 µM
TGI [32]: > 100 µM
TGI [33]: > 100 µM
TGI [34]: > 100 µM
TGI [36]: > 100 µM
TGI [37]: > 100 µM
TGI [38]: > 100 µM
TGI [39]: > 100 µM
TGI [40]: > 100 µM
TGI [41]: > 100 µM
TGI [42]: > 100 µM
TGI [43]: > 100 µM
TGI [44]: > 100 µM
TGI [45]: > 100 µM
TGI [46]: > 100 µM
TGI [47]: > 100 µM
TGI [48]: > 100 µM
TGI [49]: > 100 µM
TGI [50]: > 100 µM
TGI [51]: > 100 µM
TGI [52]: > 100 µM
TGI [53]: > 100 µM
TGI [54]: > 100 µM
TGI [56]: > 100 µM
TGI [57]: > 100 µM
TGI [58]: > 100 µM
TGI [59]: > 100 µM
TGI [60]: > 100 µM
